## AlphaSeq binding of Ab-14 light chain variants to a spike HR2 peptide

Target peptide (SARS-CoV-2 spike, HR2 region): PDVDLGDISGINAS

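The library (AAYL50) carries one to three amino acid substitutions per variant, with no insertions or deletions. AlphaSeq pools MATa yeast showing the antibodies with MATalpha yeast showing the peptide. Mating (16 h, 30 °C) was followed by selection of diploids and sequencing of their barcodes. Read counts were normalised to the haploid input and turned into Kd by a linear fit to BCL2-family pairs of known affinity, for each replicate. There are three technical replicates.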

The variants keep the heavy chain, the linker and the frameworks of Ab-14 (scFv order VH, three GGGGS repeats, VL).
VH: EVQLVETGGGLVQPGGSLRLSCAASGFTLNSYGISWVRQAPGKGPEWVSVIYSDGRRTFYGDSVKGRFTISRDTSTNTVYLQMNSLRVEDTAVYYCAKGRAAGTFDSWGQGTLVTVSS
VL: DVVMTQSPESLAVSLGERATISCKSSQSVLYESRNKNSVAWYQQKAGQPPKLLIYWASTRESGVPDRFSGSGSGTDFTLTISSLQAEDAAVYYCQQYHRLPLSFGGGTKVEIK

The whole VL of each variant is written out. Every variant below is changed at L100 of the VL (sequential numbering). Affinities are written as log10 Kd with Kd in nM; a lower number is a better binder. The mean shown is taken over the replicates in which the pair was detected. "ND" marks a missing value. The strain was present, yet no cells mated with the target were sequenced in that replicate, which points to weak or no binding. Three control strains display no target. For library AAYL50, 18% of the pairings with them gave a signal, with a median of 4.19 and one signal in twenty below 2.99, so weak values seen in few replicates may be background.

VL,"log10 Kd, replicates","log10 Kd (nM), mean"
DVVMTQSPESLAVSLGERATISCKSSESVLYESRNKNSVAWYQQKAGQPPKLLIYWASTRESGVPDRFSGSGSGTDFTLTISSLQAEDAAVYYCQQYHREPISFGGGTKVEIK,ND / ND / ND,ND
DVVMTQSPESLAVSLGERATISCKSSQSSLYESLNKNSVAWYQQKAGQPPKLLIYWASTRESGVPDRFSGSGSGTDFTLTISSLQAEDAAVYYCQQYHRTPLSFGGGTKVEIK,1.40 / 1.44 / 1.37,1.40
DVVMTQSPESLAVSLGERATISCKSSQSVLYESRNKNLVAWYQQKAGQPPKLLIYWASTRESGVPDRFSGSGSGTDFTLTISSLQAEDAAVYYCQIYHRGPLSFGGGTKVEIK,4.97 / ND / ND,4.97
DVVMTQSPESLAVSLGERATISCKSSQSVLYESRNQKSVAWYQQKAGQPPKLLIYWASTRESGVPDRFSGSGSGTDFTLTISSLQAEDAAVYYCQQYHRNPLSFGGGTKVEIK,0.79 / 0.81 / 0.97,0.86
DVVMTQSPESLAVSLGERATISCKISQSVLYESRNKNSVAWYQQKAGQPPKLLIYWWSTRESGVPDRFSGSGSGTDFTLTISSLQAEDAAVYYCQQYHRDPLSFGGGTKVEIK,ND / ND / ND,ND
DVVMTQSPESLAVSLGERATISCKSSQSVLYESRNKNSVIWYQQKAGQPPKLLIYWASTRESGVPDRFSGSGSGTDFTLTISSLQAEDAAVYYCIQYHRQPLSFGGGTKVEIK,ND / ND / ND,ND
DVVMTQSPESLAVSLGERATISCKSSQSVLYVSRNKNSVAWYQQKAGQPPKLLIYWTSTRESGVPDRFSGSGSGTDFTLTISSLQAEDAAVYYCQQYHRAPLSFGGGTKVEIK,3.48 / 2.85 / 3.71,3.35
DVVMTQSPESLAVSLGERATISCKSSQSVLYESTNKNSVAWYQQKAGQPPKLLIYWASTRESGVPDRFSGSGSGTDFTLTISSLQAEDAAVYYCQQYHRWHLSFGGGTKVEIK,0.41 / 0.61 / 0.48,0.50
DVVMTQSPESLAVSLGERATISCKSSQLVLYESRNKNSVAWYQQKAGQPPKLLIYWAVTRESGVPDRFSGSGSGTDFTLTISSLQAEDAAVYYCQQYHRWPLSFGGGTKVEIK,ND / ND / ND,ND
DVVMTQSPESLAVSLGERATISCKSSQSVLYESRNKNSVAWYQQKAGQPPKLLIYWMSTRESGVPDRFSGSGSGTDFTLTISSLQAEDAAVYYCQQYHRDPVSFGGGTKVEIK,5.79 / 3.95 / ND,4.87
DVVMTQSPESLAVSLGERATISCKSSQSVLSESRNKNSVAWYQQKAGQPPKLLIYWASTRESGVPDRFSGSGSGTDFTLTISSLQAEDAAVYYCQFYHRCPLSFGGGTKVEIK,2.33 / 1.76 / 1.76,1.95
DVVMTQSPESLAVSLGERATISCKSSQSVLYESRNKNSVAWYQQKAGQPPKLLIYWAHTRESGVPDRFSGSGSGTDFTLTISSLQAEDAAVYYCQQYHRKPLSFGGGTKVEIK,ND / ND / ND,ND
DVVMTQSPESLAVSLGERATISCKSSQSVLYEERNKNSVAWYQQKAGQPPKLLIYWASTRESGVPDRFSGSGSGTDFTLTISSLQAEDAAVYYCQDYHRDPLSFGGGTKVEIK,1.11 / 1.24 / 1.28,1.21
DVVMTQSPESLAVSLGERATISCKSSQSVLYESRNKNSVAWYQQKAGQPPKLLIYWASTRESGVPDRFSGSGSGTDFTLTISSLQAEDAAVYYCQTYHRCPLSFGGGTKVEIK,ND / ND / ND,ND
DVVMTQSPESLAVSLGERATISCKSSQSVLYESRNKNSVFWYQQKAGQPPKLLIYWASTRESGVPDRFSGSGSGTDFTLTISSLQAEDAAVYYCQQIHRYPLSFGGGTKVEIK,ND / 4.56 / 4.33,4.44
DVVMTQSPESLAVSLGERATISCKSSQSVLTESRNKNSVAWYQQKAGQPPKLLIYWASTRESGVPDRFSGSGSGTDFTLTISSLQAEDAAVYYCQQYHRCDLSFGGGTKVEIK,1.31 / 1.26 / 1.34,1.30
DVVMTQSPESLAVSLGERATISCKSSQSVLYESRNKNSVAWYQQKAGQPPKLLIYWAVTRESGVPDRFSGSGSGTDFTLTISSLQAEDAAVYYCQQYHRYMLSFGGGTKVEIK,6.63 / 4.47 / 4.28,5.13

For reference, 2 entries of the list once more:

VL	log10 Kd, replicates	log10 Kd (nM), mean
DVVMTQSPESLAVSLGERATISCKSSQSVLYESRNKNLVAWYQQKAGQPPKLLIYWASTRESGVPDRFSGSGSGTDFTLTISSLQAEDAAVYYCQIYHRGPLSFGGGTKVEIK	4.97 / ND / ND	4.97
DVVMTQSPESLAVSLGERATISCKSSQSSLYESLNKNSVAWYQQKAGQPPKLLIYWASTRESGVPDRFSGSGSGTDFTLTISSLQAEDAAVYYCQQYHRTPLSFGGGTKVEIK	1.40 / 1.44 / 1.37	1.40

Values reported by Engelhart et al. 2022, doi:10.1038/s41597-022-01779-4 (FLAb copy).